The values that follow come from PubChem BioAssay AID1009 (NMMLSC, 2008).

Amino acid sequences for entries named in this document (tags omitted).
UniProt Q07820, whole entry: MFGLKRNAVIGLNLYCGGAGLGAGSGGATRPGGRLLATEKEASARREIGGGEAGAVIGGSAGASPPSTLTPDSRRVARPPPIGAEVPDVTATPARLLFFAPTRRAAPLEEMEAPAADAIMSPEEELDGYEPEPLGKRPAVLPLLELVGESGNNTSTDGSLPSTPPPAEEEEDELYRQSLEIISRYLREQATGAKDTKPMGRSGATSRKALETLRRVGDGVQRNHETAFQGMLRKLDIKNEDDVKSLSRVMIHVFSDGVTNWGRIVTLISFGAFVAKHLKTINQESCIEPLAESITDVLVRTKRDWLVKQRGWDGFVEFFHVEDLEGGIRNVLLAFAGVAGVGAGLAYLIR

The entries are a selection whose mix differs from that of the whole data set. Calls of active or inactive are those of the source. Cut-off read from the data, not from the text of the source: active = inhibition above about 40%.

This assay has as its target Induced myeloid leukemia cell differentiation protein Mcl-1 (Homo sapiens) (UniProt Q07820). Nature of the assay: inhibitors of Bim peptide binding to Mcl-1, primary screen, biochemical, bead-based flow cytometry, multiplex (AID 1009).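 Note: 0% = no compound tracer wells and 100% = peptide blocker.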 The settings on record: Bim peptide-Mcl-1 binding, at 10 µM, active compounds read high.
Regarding `COc1cc(OC)cc(C(=O)NCC2(N3CCOCC3)CCCCC2)c1`, the inhibition (as a rule, the drop in the measured response relative to a control, in per cent) is inactive: 2%.

In the case of `CCC(CO)(C(=O)OC1CN2CCC1CC2)c1ccccc1` (stereo not given), the inhibition is inactive: 0%.

In the case of `CC(C)(C)OC(=O)N1CCC(Nc2ccccc2)CC1`, the inhibition is inactive: -6%.

`CCOc1ncccc1C(=O)NCC1(N2CCOCC2)CCCCC1`: the inhibition was inactive: -8%.

As to `CN(C)c1ccc(C(=O)NCC2(N3CCCCC3)CCCCC2)cc1`, the inhibition is inactive: 0%.

For the molecule `CCN1CCC(Nc2cccc(F)c2)CC1`, the inhibition was inactive: -6%.

For `Fc1ccccc1NC1CCN(Cc2ccccc2)CC1`, the inhibition was inactive: 0%.

Regarding `c1ccc(CN2CCC(Nc3ccccc3)CC2)cc1`, the inhibition is inactive: 1%.

`N#Cc1ccc(C(=O)NCC2(N3CCCCC3)CCCCC2)cc1`: the inhibition is inactive: 0%.

Take `O=C(OC1CN2CCC1CC2)C1c2ccccc2C=Cc2ccccc21` (stereo not given): the inhibition is inactive: -2%.

Turning to `N/C(=N\O)c1c(N)no[n+]1[O-]`, the inhibition is inactive: -2%.

With `COc1ccc(C(=O)NCC2(N3CCOCC3)CCCCC2)cc1OC`, the inhibition is inactive: 0%.

Consider `CC(C)c1ccc(NC2CCN(C(=O)OC(C)(C)C)CC2)cc1`, for which the inhibition is inactive: 2%.

`COc1ccc(CN(CCCl)CCCl)cc1Cl`: the inhibition is inactive: 0%.

Regarding `CN(C)c1cccc(C(=O)NCC2(N3CCCCC3)CCCCC2)c1`, the inhibition was inactive: 0%.

Take `O=C(NCC1(N2CCOCC2)CCCCC1)c1cc(=O)[nH]c2ccccc12`: the inhibition was inactive: -8%.

`CN1CCN(CCOC(=O)C(O)(c2ccccc2)c2ccccc2)CC1`: the inhibition was inactive: -5%.

As for `COc1ccc(NC2CCN(C(=O)OC(C)(C)C)CC2)cc1`, the inhibition is inactive: -1%.

`N#CC1(Nc2ccccc2)CCN(CCc2ccccc2)CC1`: the inhibition is inactive: 0%.

As for `O=C(NCC1(N2CCCCC2)CCCCC1)c1cccc([N+](=O)[O-])c1`, the inhibition was inactive: 1%.

Turning to `COc1ccc(NC2CCN(CCc3ccccc3)CC2)c(OC)c1`, the inhibition was inactive: 0%.

Consider `O=C(OC1CN2CCC1CC2)C1c2ccccc2Oc2ccccc21` (stereo not given), for which the inhibition was inactive: 1%.

With `CCOC(=O)N1CCC(Nc2ccc(OC)cc2)CC1`, the inhibition is inactive: -2%.

`O=C(NCC1(N2CCOCC2)CCCCC1)c1cc2ccccc2o1`: the inhibition was inactive: 7%.

`COc1ccc(C(=O)NCC2(N3CCCCC3)CCCCC2)c(OC)c1OC`: the inhibition is inactive: 2%.
